In patent US8609812B2, “Use of β-2-microglobulin to assess glomerular alterations and damage in the kidney” (Novartis AG, priority 2007, dated 2013):

Test system: liver
Settings: ANIT study, relation to dose

Structure (SMILES): S=C=Nc1cccc2ccccc12 [ANIT, alpha-naphtylisothiocyanate]
- biomarker levels (ALAT, lipocalin-2, GST-mu in plasma; lipocalin-2 in urine), fold changes versus controls: correlate well with the dose
